Data reported in US20180217131A1, “Novel Cell Based Assay” (Medical Diagnostic Laboratories, LLC, priority 2017, published 2018).

Chains of the proteins cited; added tags and fusions are not shown. A line that says so, or that is headed by a name, gives the form on record, which may keep a tag or linker.
UniProt P03372, with tags, fused parts or gaps INS344A: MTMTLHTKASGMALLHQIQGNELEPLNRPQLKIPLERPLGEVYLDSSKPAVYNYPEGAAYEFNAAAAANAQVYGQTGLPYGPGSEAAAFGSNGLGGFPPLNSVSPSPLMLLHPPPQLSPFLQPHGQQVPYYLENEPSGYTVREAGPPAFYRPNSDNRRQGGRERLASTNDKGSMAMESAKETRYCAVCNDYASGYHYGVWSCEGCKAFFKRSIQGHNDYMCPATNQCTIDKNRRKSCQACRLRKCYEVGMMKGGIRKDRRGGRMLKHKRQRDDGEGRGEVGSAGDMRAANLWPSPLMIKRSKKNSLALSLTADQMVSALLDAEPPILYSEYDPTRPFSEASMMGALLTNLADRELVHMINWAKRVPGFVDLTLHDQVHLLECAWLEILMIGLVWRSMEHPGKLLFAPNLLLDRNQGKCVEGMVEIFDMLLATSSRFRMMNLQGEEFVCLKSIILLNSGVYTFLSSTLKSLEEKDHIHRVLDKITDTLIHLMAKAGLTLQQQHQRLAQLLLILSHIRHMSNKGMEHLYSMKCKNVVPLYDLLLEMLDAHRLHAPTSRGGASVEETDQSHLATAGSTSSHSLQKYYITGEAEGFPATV
UniProt P03372, whole entry E380Q: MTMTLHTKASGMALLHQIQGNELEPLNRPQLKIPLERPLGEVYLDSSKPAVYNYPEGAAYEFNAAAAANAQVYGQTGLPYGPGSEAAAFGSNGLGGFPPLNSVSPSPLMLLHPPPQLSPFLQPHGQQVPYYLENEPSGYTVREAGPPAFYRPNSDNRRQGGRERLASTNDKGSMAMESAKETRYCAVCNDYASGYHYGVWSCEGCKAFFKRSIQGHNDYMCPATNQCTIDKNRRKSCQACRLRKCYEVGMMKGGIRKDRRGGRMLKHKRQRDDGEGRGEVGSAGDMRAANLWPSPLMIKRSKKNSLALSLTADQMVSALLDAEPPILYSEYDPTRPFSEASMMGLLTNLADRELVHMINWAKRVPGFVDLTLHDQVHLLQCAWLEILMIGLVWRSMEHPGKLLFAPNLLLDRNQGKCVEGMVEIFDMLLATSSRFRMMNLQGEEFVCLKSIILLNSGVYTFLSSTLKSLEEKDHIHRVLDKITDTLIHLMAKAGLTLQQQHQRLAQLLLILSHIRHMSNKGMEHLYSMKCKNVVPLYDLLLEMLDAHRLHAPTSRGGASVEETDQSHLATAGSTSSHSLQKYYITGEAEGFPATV
UniProt P03372, whole entry: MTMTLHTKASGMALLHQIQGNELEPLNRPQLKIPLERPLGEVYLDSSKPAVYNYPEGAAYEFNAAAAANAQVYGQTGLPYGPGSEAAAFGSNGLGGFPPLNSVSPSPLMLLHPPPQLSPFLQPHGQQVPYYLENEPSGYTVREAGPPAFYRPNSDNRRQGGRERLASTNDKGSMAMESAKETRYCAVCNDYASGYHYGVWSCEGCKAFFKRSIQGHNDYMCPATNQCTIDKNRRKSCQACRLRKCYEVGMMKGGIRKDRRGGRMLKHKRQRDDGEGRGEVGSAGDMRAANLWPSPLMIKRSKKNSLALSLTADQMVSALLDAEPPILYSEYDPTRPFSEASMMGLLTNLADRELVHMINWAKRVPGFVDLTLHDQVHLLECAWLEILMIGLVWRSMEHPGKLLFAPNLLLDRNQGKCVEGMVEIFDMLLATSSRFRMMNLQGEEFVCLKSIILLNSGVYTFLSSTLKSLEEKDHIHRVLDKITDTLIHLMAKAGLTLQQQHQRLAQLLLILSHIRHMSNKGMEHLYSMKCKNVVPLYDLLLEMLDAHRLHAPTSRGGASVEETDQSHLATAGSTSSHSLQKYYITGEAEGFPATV

What was measured:
[1] = target: 344insC mutant of ESR1 (Homo sapiens, UniProt P03372, INS344A); settings: 344insC ESR1, inhibitor alone or inhibitor and estrogen, all-in-one method
Method: (§1) The luciferase reporter activity was measured 24 hours post-transfection.

[2] = target: E380Q mutant of estrogen receptor (Homo sapiens, UniProt P03372, E380Q); settings: E380Q ESR1, compound alone or with estrogen
Method: as §1

[3] = target: T1, estrogen receptor (wild-type ESR1) (Homo sapiens, UniProt P03372); settings: HEK 293, estrogen with or without inhibitor for 6 hours
[4] = target: T1, estrogen receptor (wild-type ESR1); settings: clone #4, serial dilution of inhibitor in the presence of 64 pM of estrogen, 6 hours
Method: (§2) The luciferase reporter activity was measured.
as §2, §2, §1

## C[C@]12CC[C@@H]3c4ccc(O)cc4C[C@@H](CCCCCCCCC[S+]([O-])CCCC(F)(F)C(F)(F)F)[C@H]3[C@@H]1CC[C@@H]2O (stereo partly shown) [fulvestrant]
[1]
  reporter activity (partial agonistic activity) of ER inhibitors: No partial agonistic activity
[2]
  inhibitory activity on luciferase reporter activity: inhibitory activity was detected
[3]
  estrogen-induced luciferase reporter activity in the presence of ER inhibitor: reduced
[4]
  inhibition of estrogen activation of the reporter: block activation of the reporter by estrogen in a dose dependent manner
